Experimental findings from patent publication US8268635B2, “Methods of identifying agents that selectively activate p38 and/or NKkB signaling” (priority 2006, dated 2012) are described below.

The subject of assay [1] is JNK. Description: JNK activation in neutrophils in suspension. Type of assay: cell-based, human. As to conditions: 15 min; TNF 100 U/ml, TNF70-80 10 μM, anisomycin 2.5 μg/ml. The source says:
(§1) The blots were stripped and reprobed with anti-JNK1 antibody which detected the p46-kDa JNK1 isotype in each lane. […] The cells were lysed and the lysate assessed by western blot analysis for the level of dual-phosphorylated ERK1/ERK2 (top panel) and ERK2 protein (bottom panel). […] The level of myelin basic protein phosphorylation was quantitated by an Instant Imager. Results presented (a and b) are from one experiment, representative of three-four experiments, each conducted using cells from a different donor.
(§2) Neutrophils were prepared from peripheral blood of healthy donors by a rapid single-step technique (Kumaratilake, L. M., Rathjen, D. A., Mack, P., Widmer, F., Prasertsiriroj, V., and Ferrante, A. (1995) J. Clin. Invest. 95: 2315-2323) using Hypaque-Ficoll and according to the institution's guidelines on human ethics. The preparations of neutrophils were routinely of >99% viability and >98% purity. […]
(§3) Western blot analysis was conducted as described previously (Hii, C. S., Huang, Z. H., Bilney, A., Costabile, M., Murray, A. W., Rathjen, D. A., Der, C. J., and Ferrante, A. (1998) J. Biol. Chem. 273: 19277-19282). […] The amounts of dually phosphorylated ERK1 and ERK2, phospho-JNK and NFκB p65 subunit were detected using rabbit anti-active ERK, mouse anti-phospho JNK and rabbit anti-NFκB antibody, respectively. […]

Another assay deals with ERK1/ERK2. Put plainly: ERK1/ERK2 activation in neutrophils in suspension. The format is cell-based, human. The settings on record: TNF, TNF70-80 15 min; PMA 100 nM 5 min.
From the text: as §1, §2, §3

Another assay concerns p38. Put plainly: p38 kinase activity in human neutrophils. Type of assay: cell-based. The settings on record: 5 min; TNF 100 or 1000 U/ml, TNF70-80 10-50 μM. The source says: The blots were stripped and reprobed with anti-JNK1 antibody which detected the p46-kDa JNK1 isotype in each lane. […] The cells were lysed and the lysate assessed by western blot analysis for the level of dual-phosphorylated ERK1/ERK2 (top panel) and ERK2 protein (bottom panel). […] The level of myelin basic protein phosphorylation was quantitated by an Instant Imager. Results presented (a and b) are from one experiment, representative of three-four experiments, each conducted using cells from a different donor. […]
(§4) KHS (hereon referred to as “GCKR”) activity was assayed as described previously using myelin basic protein as a substrate (Shi, C. S., Leonardi, A., Kyriakis, J., Siebenlist, U., and Kerhl, J. H. (1999) J. Immunol. 163: 3279-3285). ASK-1 activation was determined in immunoprecipitates of ASK-1 by autophosphorylation (Kyriakis, J. M., and Auruch, J. (2001) Physiol. Rev. 81: 807-869). p38 and ERK activities were determined as described using myelin basic protein as a substrate (Hii, C. S., Huang, Z. H., Bilney, A., Costabile, M., Murray, A. W., Rathjen, D. A., Der, C. J., and Ferrante, A. (1998) J. Biol. Chem. 273: 19277-19282). […]
Neutrophils (1×10^7) were then added and further incubated for 30 min at 37° C. […] The level of myelin basic protein phosphorylation was quantitated by an Instant Imager. […]

Assay [2] deals with JNK. Description: JNK activity in adherent neutrophils. Type of assay: cell-based, human. As to the method:
ERK activation was determined by assessing the level of ERK1/ERK2 dual phosphorylation (a) or by kinase activity assay (b) after immunoprecipitation. JNK activity was assayed as described under Experimental using GST-jun (1-79) as the substrate (c). (a) Immunoblot probed with anti-ACTIVE ERK antibody (top panel), stripped, and re-probed with anti-ERK2 antibody (bottom panel). (b) The data is presented as the means+−sem of 3 experiments. […] Significance of difference between control and stimulated cells: *p<0.05. […]
as §4

On to “TNF: Human recombinant TNF produced by Genentech, Inc.”, for which the “activity/phosphorylation of JNK in neutrophils in suspension” value with JNK [1] is given as “neither TNF nor TNF70-80 stimulated the activity of either JNK or ERK”. Moreover, in the assay on ERK1/ERK2, the “activity/dual phosphorylation of ERK in neutrophils in suspension” value was “neither TNF nor TNF70-80 stimulated the activity of either JNK or ERK”. For the same substance, the “activity of p38 in neutrophils in suspension” value in the assay on p38 is listed as “enhanced the activity of p38”. The “activity of JNK in adherent neutrophils” value in the assay on JNK [2] (neutrophils pre-adhered to plasma-coated dishes, 15 min, TNF 1000 U/ml, TNF70-80 10 μM) is reported as “stimulated the activity of JNK”. Moreover, the “JNK activity in neutrophils pre-adhered to non-coated surfaces” value with JNK [2] (non-coated surfaces, data not shown) is reported as “failed to stimulate the activity of either GCKR or JNK”.
